Data on four molecules can be found in patent US20220331267A1, “METHODS AND COMPOSITIONS FOR TREATMENT OF DEMYELINATING DISORDERS” (Rush University Medical Center, priority 2019, published 2022).

Data set [1] deals with T1, H412Lpparβ (Mus musculus, UniProt P35396, H412L).
Another data set has as its system Pparb-null OPCs. Briefly: NG2/MBP dual immunofluorescence in Pparb-null OPCs transduced with PPARβ constructs. The data set is classed as cell-based, mouse. As to conditions: 24 hrs.
In data set [2] the target is T1, H412Lpparβ. As to the kind of experiment: PPRE-luciferase assay in Pparb-null OPCs transduced with GFPH412Lpparβ. It counts as cell-based. The arrangement: host or cells: Pparb-null mouse primary OPCs (lentiviral transduction). As to conditions: increasing doses.
In the next data set the target is T2, flpparβ (Mus musculus, UniProt P35396).
T2 construct: host or cells: Pparb-null mouse primary OPCs (lentiviral transduction)
T2 sequence (P35396 1-440): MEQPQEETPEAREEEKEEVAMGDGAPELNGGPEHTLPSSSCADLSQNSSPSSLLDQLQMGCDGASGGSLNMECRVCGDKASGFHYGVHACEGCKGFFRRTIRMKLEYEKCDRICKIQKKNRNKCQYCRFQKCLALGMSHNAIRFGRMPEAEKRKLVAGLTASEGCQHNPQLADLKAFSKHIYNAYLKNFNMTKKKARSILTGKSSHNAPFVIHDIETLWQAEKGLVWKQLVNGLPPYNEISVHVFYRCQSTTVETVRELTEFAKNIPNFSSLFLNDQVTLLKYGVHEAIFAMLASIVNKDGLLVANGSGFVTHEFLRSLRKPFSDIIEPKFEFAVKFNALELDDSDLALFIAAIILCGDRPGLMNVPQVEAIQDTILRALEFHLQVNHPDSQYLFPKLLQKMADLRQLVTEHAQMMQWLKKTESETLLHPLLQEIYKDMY
As to the kind of experiment: PPRE-luciferase assay in Pparb-null OPCs transduced with GFPflpparβ. The data set is classed as cell-based. To be noted: GFPflpparβ-infected Pparb-null OPCs, increasing doses.

For data set [3], the target named is T3, PPARβ (Mus musculus, UniProt P35396).
T3 sequence (P35396 1-440): T2 sequence (P35396 1-440)
Briefly: PPRE-driven luciferase assay in cultured OPCs. It counts as cell-based. More on the design: OPCs were transfected with PPRE-luciferase for 48 hrs and then treated with these compounds; endogenous in cells; host or cells: mouse primary OPCs from P1 cerebellum. To be noted: different concentrations.

For another data set, the target named is T4, GFPH412Lpparβ (Mus musculus, UniProt P35396, H412L).
T4 construct: host or cells: Pparb-null mouse primary OPCs (lentiviral transduction)
As to the kind of experiment: GFP-affinity purification and GCMS of Pparb-null OPCs transduced with GFPH412Lpparβ. The data set is classed as binding.

The next data set deals with PLP, MOG, MBP and CNPase. Briefly: Real-time and semi-quantitative RT-PCR of myelin genes in OPCs. It counts as cell-based, mouse. As to conditions: cultured OPCs. On the procedure:
FIG. 1A-1T. The role of DBB, DBP and MePA in the differentiation of OPC into oligodendrocytes and myelination. […] Briefly, mouse primary OPCs were treated with different concentrations of molecules for 1 hr, lysed and measured for DNA probe binding activity of PPARβ. […] Benzene was included as negative control. **p<0.01 vs. control for PLP, MOG, MBP, and CNPase. Results are mean±SD of three independent experiments. (FIG. 1G) Immunoblot followed by (FIG. 1H) relative densitometric analyses of PLP and MBP in mouse primary OPCs treated with increasing concentrations of DBB for 18 hrs. Band intensity was measured with image J software and then normalized with respective actin band. *p<0.05 (=0.041) vs. PLP control and *p<0.05 (=0.026) vs. MBP control. […] (N) Mean fluorescence intensity (MFI) of MBP was measured from total 15 cells per group with three cells from 5 different images per group. […] (FIG. 1Q) Mean fluorescence intensity (MFI) of MBP was measured from total 15 cells per group with three cells from 5 different images per group. […] (FIG. 1T) Numbers of MBP-ir cells of different treatment groups were counted per sq.mm of nanofiber matrix and presented as a histogram. […]
DBB, DBP and MePA stimulate the differentiation of OPC to oligodendrocytes and promote myelination. […] After that, cells were lysed and assessed for PPRE-luciferase activity. […]

The target in data set [4] is T3, PPARβ. Briefly: biochemical.
Another data set addresses T5, PPARβ LBD (Homo sapiens, UniProt Q03181).
T5 sequence (Q03181 211-439 limits assumed): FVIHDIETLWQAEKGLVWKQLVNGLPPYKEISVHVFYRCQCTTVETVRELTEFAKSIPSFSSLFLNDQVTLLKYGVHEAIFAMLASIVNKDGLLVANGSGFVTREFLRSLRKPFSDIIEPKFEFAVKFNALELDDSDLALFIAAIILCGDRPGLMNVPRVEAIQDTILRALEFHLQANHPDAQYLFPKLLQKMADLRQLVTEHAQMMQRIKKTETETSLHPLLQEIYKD
As to the kind of experiment: TR-FRET (Lanthascreen PPAR-β coactivator assay). Background: In TR-FRET formats the signal depends on donor and acceptor labels being close together.

The subject of the next data set is breast cancer. As to conditions: preclinical model; cited from earlier work.
The next data set deals with intestinal cancer. As to conditions: preclinical model; cited from earlier work.

The EC50 is the concentration needed to bring the measured effect to its halfway point. Read a low EC50 as higher potency in that assay. Usually ΔTm stands for the shift of the melting midpoint relative to a reference. In the case of `CCCCCCCCCCCCCCCC(=O)OC` [MePA, Methyl palmitate], at H412Lpparβ [1], the “ΔTm (shift of melting curve)” value is 4.03 °C. Further, the “expression of MBP / differentiation” value in the data set on Pparb-null OPCs (H412Lpparβ-infected Pparb-null OPCs) is “increased the expression of MBP”; with Pparb-null OPCs (V304Mpparβ-infected Pparb-null OPCs), “but not V304Mpparβ-infected”; in the data set with Pparb-null OPCs (flpparβ-transduced Pparb-null OPCs) it was “increased the expression of MBP”. In addition, the results for the PPRE-luciferase activity entry at H412Lpparβ [2], at flpparβ and at PPARβ [3] were “increased PPRE-luciferase activity”, “increased PPRE-luciferase activity” and “increased the PPRE-luciferase activity in a dose-dependent manner”, respectively. Besides, the “Adjusted Peak Area” value at GFPH412Lpparβ (ligand peak area divided by dodecane peak) came to 0.009431. The same molecule had an RA at GFPH412Lpparβ (relative abundance vs GFPflpparβ) of 0.8732. The “expression of myelin genes (PLP, MOG, MBP, CNPase mRNA)” value with PLP, MOG, MBP and CNPase is given as “upregulated the expression of myelin genes”. In addition, at PPARβ [4], the EC50 is ~50 nM. In addition, on PPARβ [4] (read-out: ΔTm), the ΔTm at 0.1 µM stood at 5.28 °C.

Consider `CC(C)(C)c1cccc(C(C)(C)C)c1` [DBB, 1,3-Di-tertbutyl benzene], for which the “ΔTm (shift of melting curve)” value at H412Lpparβ [1] amounted to 5.95 °C. In addition, the half-maximal effective concentration (EC50) was 525 nM on PPARβ LBD and ~500 nM on PPARβ [4]. On PPARβ [4] (read-out: ΔTm), the ΔTm at 1 µM turned out to be 2.14 °C.

Consider `Cc1cc(SCc2sc(-c3ccc(C(F)(F)F)cc3)nc2C)ccc1OCC(=O)O` [GW501516], for which the “tumour promotion (breast cancer)” value in the data set with breast cancer is given as “promoted the development of breast cancer”.

Consider `Cc1cc(SCc2sc(-c3ccc(C(F)(F)F)c(F)c3)nc2C)ccc1OCC(=O)O` [GW0742], for which the “tumour promotion (intestinal cancer)” value in the data set on intestinal cancer is recorded as “stimulated intestinal cancer”.
